## Experimental vapor pressure values from OPERA 2.9

Data: OPERA 2.9 data sets, kmansouri/OPERA on GitHub.

Vapor pressure is log10 of mmHg; the set covers 15 to 30 °C, mostly 20 to 25 °C. Cells with "–" have no entry in this list.

compound,name,vapor pressure (log10 mmHg)
CCCCC/C(C=O)=C\c1ccc(C)cc1,(2E)-2-[(4-Methylphenyl)methylene]heptanal,-3.894
CCB(CC)OC,Diethylmethoxyborane,1.695
Nc1nc(C2CC2)nc(C(=O)O)c1Cl,–,-7.432
COc1ccc2c(O[C@@H]3C[C@H]4C(=O)N[C@]5(C(=O)O)C[C@H]5C=CCCCCN(C)C(=O)[C@@H]4C3)cc(-c3nc(C(C)C)cs3)nc2c1C,–,-8.012
CC[C@@H]([C@H](C)OCc1ccccc1)N(N)C(=O)Nc1ccc(N2CCN(c3ccc(OC[C@@H]4CO[C@@](Cn5cncn5)(c5ccc(F)cc5F)C4)cc3)CC2)cc1,–,-7.932
FC(F)(F)OC1(Cl)OC(F)(F)OC1(F)Cl (stereo unspecified),–,2.164
CCC(=O)OCC(C)(C)OC(C)C1CCCC(C)(C)C1 (stereo unspecified),–,-0.823
c1ccc(-c2cnc(-c3ccccc3)o2)cc1,"2,5-Diphenyloxazole",-4.921
CCCC(=NOCC(C)Oc1ccc(Cl)cc1)C1=C(O)CC(C2CCCSC2)CC1=O (stereo unspecified),Profoxydim,-5.893
C=C(CC(=O)OCCCC)C(=O)OCCCC,Dibutyl itaconate,-2.992
CCN(CC)CCOC(=O)CCCCC(=O)OCCN(CC)CC,Bis(2-(diethylamino)ethyl) adipate,-5.587
CCCCC(CC)COC(=O)/C=C\C(=O)OCC(CC)CCCC (stereo partly drawn),Bis(2-ethylhexyl) maleate,-5.638
COc1cc(C)c(Cc2cnc(N)nc2N)cc1OC,Ormetoprim,-7.644
O=C1NC(c2ccc(-c3ccccc3)cc2)=C2C(=O)NC(c3ccc(Cl)cc3)=C12,–,-6.152
FC(F)(F)C(F)(F)C(F)(F)C(F)(F)C(F)(F)C(F)(F)CCS,2-(Perfluorohexyl)ethanethiol,0.867
CC[Si](Cl)(Cl)CC,Diethyldichlorosilane,1.076
CC(C)CCN,3-Methyl-1-butanamine,1.556
O=C1CCCN1CCO,1-(2-Hydroxyethyl)pyrrolidin-2-one,-3.569
Fc1cc(Br)cc(F)c1F,"1-Bromo-3,4,5-trifluorobenzene",0.765
FC(F)(F)C(F)(F)C(F)(C(F)(F)F)C(F)(F)C(F)(F)F,–,2.32
O=S(=O)(Oc1ccc(Cl)cc1Cl)c1ccccc1,"2,4-Dichlorophenyl benzenesulfonate",-3.569
CCCCc1oc2ccc([N+](=O)[O-])cc2c1C(=O)c1ccc(O)cc1,–,-5.663
CCOC(=O)CC(NC1CCC(CC2CCC(NC(CC(=O)OCC)C(=O)OCC)CC2)CC1)C(=O)OCC (stereo unspecified),Desmophen LS 2973,-4.79
CCCCCCCCCCCCOC(=O)c1cc(O)c(O)c(O)c1,Lauryl gallate,-8.991
CCOC(=O)[C@@H]1C2CCC(CC2)[C@H]1Nc1nc(Cl)ncc1F,–,-7.693
CO[Si](OC)(OC)c1ccccc1,Trimethoxyphenylsilane,-0.865
CCCCCCCCC=CCCCCCCCC(=O)OCCC,–,-3.803
N#CCCN(CCOC(=O)c1ccccc1)c1ccc(N=Nc2ccc([N+](=O)[O-])cc2)cc1,C.I. Disperse Orange 73,-5.862
CCCCCCCCCCCCCCCC(=O)N[C@H](C(=O)O)[C@@H](C)CC,"Isoleucine, N-(1-oxohexadecyl)-",-7.824
C=C(CC(=O)OC)C(=O)OC,Dimethyl itaconate,-1.517
CN(C)CCOCCN(C)CCCN,–,-1.454
CCCCCCCCCC(=O)N(C)C,"N,N-Dimethyldecan-1-amide",-3.084
O=C(O)c1c(Cl)c(Cl)c(Cl)c(Cl)c1C(O)=Nc1cccc(Cl)c1Cl,Tecloftalam,-7.213
COCCOCCOCCNC(C)(C)C,–,-2.095
CC(C)CCCCCCCOC(=O)CC(C)CC(C)(C)C (stereo unspecified),"Hexanoic acid, 3,5,5-trimethyl-, isodecyl ester",-3.813
NN1CC2CCCC2C1 (stereo unspecified),Hexahydrocyclopenta[c]pyrrol-2(1H)-amine,-0.474
CCCCC(CC)COC(=O)C1CCC2OC2C1 (stereo unspecified),–,-3.453
Nc1cccc(S(=O)(=O)c2cccc(N)c2)c1,"3,3'-Sulphonyldianiline",-4.725
CCCCCCCCCCCCCCCC[Si](Cl)(Cl)Cl,"Silane, trichlorohexadecyl-",-4.28
CCC[Si](OC)(OC)OC,Trimethoxypropylsilane,1.035
O=C(N[C@H](C(=O)O)C1CCCCC1)OCc1ccccc1,(2S)-{[(Benzyloxy)carbonyl]amino}(cyclohexyl)acetic acid,-7.824
CC(C)COc1ccc2ccccc2c1,2-(2-Methylpropoxy)naphthalene,-2.949
CO[Si](CCCn1c(=O)n(CCC[Si](OC)(OC)OC)c(=O)n(CCC[Si](OC)(OC)OC)c1=O)(OC)OC,–,-3.084
C=C(C)C(=O)OCC(CC)(COC(=O)C(=C)C)COC(=O)C(=C)C,"1,1,1-Trimethylolpropane trimethacrylate",-4.468
O=S(=O)(CCO)CCO,"2,2'-Sulfonyl bisethanol",-5.233

Again, the 3 entries with the lowest vapor pressure:

| compound | name | vapor pressure (log10 mmHg) |
|---|---|---|
| CCCCCCCCCCCCOC(=O)c1cc(O)c(O)c(O)c1 | Lauryl gallate | -8.991 |
| COc1ccc2c(O[C@@H]3C[C@H]4C(=O)N[C@]5(C(=O)O)C[C@H]5C=CCCCCN(C)C(=O)[C@@H]4C3)cc(-c3nc(C(C)C)cs3)nc2c1C | – | -8.012 |
| CC[C@@H]([C@H](C)OCc1ccccc1)N(N)C(=O)Nc1ccc(N2CCN(c3ccc(OC[C@@H]4CO[C@@](Cn5cncn5)(c5ccc(F)cc5F)C4)cc3)CC2)cc1 | – | -7.932 |

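OPERA's authors assembled the values from existing databases and did not measure them anew. One number stands for a compound and property, with no spread given. Method and conditions are not stated for these values. A value may pool stereoisomers or salt forms, and the file does not say which form was measured. Some entries may be limits or estimates that an upstream database listed as plain numbers.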